# Apparent affinities of Ab-14 variants for a coronavirus HR2 peptide

Source: Li et al. 2023 (doi:10.1038/s41467-023-39022-2), MIT Lincoln Laboratory and A-Alpha Bio; data file from the FLAb repository.

Antigen: PDVDLGDISGINAS, a 14-residue peptide of the SARS-CoV-2 spike HR2 region.

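Phage display of a naive human antibody library on the peptide gave the parent. These sequences belong to a second round, designed from the earlier measurements on random variants of the parent. Their group label is 14H_GP_Gibbs (GP: Gaussian process model; Gibbs: Gibbs sampling; a sequence that several methods proposed may carry one label only). The scFvs were displayed on barcoded MATa yeast, the peptide on MATalpha yeast. The frequency of each diploid, read from paired DNA barcodes, reflects how well the two displayed proteins bind. Each replicate has its own calibration line, from reference interactions of the BCL2 family. The assay was run in six technical replicates.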

Each scFv is VH, a 15-residue (Gly4Ser)3 linker, VL, as in the parent Ab-14, and differs from it in the CDRs of the heavy chain only.
VH: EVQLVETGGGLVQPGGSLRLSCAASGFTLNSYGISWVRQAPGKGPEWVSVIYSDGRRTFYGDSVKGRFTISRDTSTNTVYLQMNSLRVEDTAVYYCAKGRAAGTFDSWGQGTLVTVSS
VL: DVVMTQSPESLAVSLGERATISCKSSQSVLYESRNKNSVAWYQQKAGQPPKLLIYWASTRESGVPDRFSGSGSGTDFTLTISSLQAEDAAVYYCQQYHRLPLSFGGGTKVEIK

The parent's heavy chain CDRs are GFTLNSYGIS, VIYSDGRRTFYGDSVK, GRAAGTFDS; each variant's own CDRs replace them letter for letter.
Numbers give log10(Kd / nM), so 0 is 1 nM and 3 is 1 µM. Smaller is tighter.
Averages over replicates are reported, and they cover detected replicates only.
A pair that was not seen in that replicate is written "nd"; this usually means weak binding, but a binder can also be missed.
In the paper, a design with two or fewer of six values counts as a poor binder.

CDR-H1,CDR-H2,CDR-H3,"replicates, log10 nM","log10 Kd (nM), mean",signal with controls
GFSLNSYGIS,VIYSDGRRTFYGDQVK,GREAGTFDK,0.77 1.20 0.85 0.58 0.73 0.45,0.76,1 of 18 (1.21)
GFQLNSYGIS,VIYSDGKRTFYGDSVK,GQAAGTFDL,1.40 1.35 2.16 1.94 1.63 2.06,1.76,1 of 18 (1.78)
GFNLNTYGIS,VIYSDGRRTFYVDSVK,GEAAGTFDS,0.88 1.96 0.85 1.19 0.77 1.47,1.19,0 of 18
MFDLNSYGIS,VIYSDGRRTFYIDSVK,GQEAGTFDS,0.93 1.61 nd 1.10 1.46 1.50,1.32,0 of 18
GFSLNSYGIS,VIYSDGRRTAYQDDVK,GRAAGTFDS,0.30 0.16 0.15 0.53 0.38 0.26,0.30,0 of 18
GFELNSYGIS,VIYSDGRRTFYADSVK,GKTAGTFDA,0.68 0.45 0.26 0.42 0.44 0.84,0.52,2 of 18 (2.54)
GFSLNEYGIS,VIYSDGRRTFYGDRVK,GQTAGTFDS,0.24 -0.20 -0.05 0.09 -0.02 0.32,0.06,2 of 18 (3.27)
GFELNDYGIS,VIYSDGRRTFYADEVK,GRTAGTFDS,0.23 0.29 0.07 0.15 -0.08 -0.04,0.10,0 of 18
GFTLNEYGIS,VIYSDGRRTFYGDSVK,GRNAGTFDK,0.28 1.20 0.56 1.56 0.89 0.95,0.91,1 of 18 (2.77)
GFSLNEYGIS,VIYSDGRRTFYGDSVK,GRTAGTFIS,nd 1.33 nd 1.65 1.19 2.16,1.58,0 of 18
GFSLNEYGIS,VIYSDGRRTFYGDSVK,GKEAGTFDT,-0.06 0.31 -0.19 -0.57 -0.33 0.00,-0.14,0 of 18
GFSLNSYGIS,VIYSDGRRTFYGDDVK,GVTAGTFDS,0.59 0.20 0.13 0.18 0.08 0.15,0.22,0 of 18
GFTLNSYGIS,VIYSDGRRTFYGDRVK,GQEAGTFDK,nd 1.44 1.01 nd 0.95 0.79,1.05,0 of 18
GFSLNWYGIS,VIYSDGRRTFYSDSVK,GRTAGTFDS,0.84 2.09 1.50 2.13 1.27 2.56,1.73,0 of 18
GFTLESYGIS,VIYSDGRRTFYGDDVK,GEAAGTFDS,0.58 0.30 1.23 0.45 nd 0.00,0.51,0 of 18
SFTLNSYGIS,VIYADGRRTFYGDSVK,GQAAGTFDL,1.34 2.04 1.23 0.82 1.04 1.58,1.34,0 of 18
GFELNSYGIS,VIYADGRRTFYGDSVK,GRTAGTFDF,0.32 -0.23 0.35 -0.27 0.21 -0.21,0.03,0 of 18
GFQLNSYGIS,VIYSDGRRTFYADQVK,GQAAGTFDS,nd 1.24 0.67 1.40 1.38 1.37,1.21,0 of 18
GFDLNTYGIS,VIYSDGRRTAYGDQVK,GQAAGTFDS,0.07 -0.03 -0.21 0.00 -0.06 -0.05,-0.05,0 of 18
GFTLNSYGIS,VIYSDGKRTFYADDVK,GREAGTFDT,-0.19 -0.24 -0.12 -0.30 -0.26 -0.44,-0.26,0 of 18
GFNLNSYGIS,VIYSDGRRTFYIDPVK,GRQAGTFDS,nd nd nd nd nd nd,nd,0 of 18
GFSLNSYGIS,VIYSDGRRTFYADNVK,GMTAGTFDS,0.48 -0.22 -0.32 -0.59 -0.58 -0.06,-0.22,0 of 18
YFDLNSYGIS,VIYSDGRRTFYIDSVK,GKAAGTFDS,2.05 1.50 1.14 0.95 nd nd,1.41,0 of 18
GFSLNEYGIS,VIYSDGRRTFYSDSVK,GRTAGTFDK,-0.29 -0.28 -0.50 -0.51 -0.36 -0.34,-0.38,0 of 18
GFSLNEYGIS,VIYSDGRRTFYVDSVK,GQAAGTFDT,0.22 0.69 0.58 0.45 0.64 0.93,0.59,0 of 18
GFELNEYGIS,VIYSDGKRTFYGDSVK,GRQAGTFDS,0.10 0.41 0.09 0.14 0.19 0.53,0.24,0 of 18
GFELNDYGIS,VIYSDGRRTFYCDSVK,GRVAGTFDS,0.25 -0.35 -0.01 0.36 0.08 0.29,0.10,0 of 18
GFTLDSYGIS,VIYADGRRTFYGDRVK,GRAAGTFDS,1.71 1.32 1.23 0.83 1.46 2.34,1.48,0 of 18
GFHLNSYGIS,VIYSDGRRTFYKDSVK,GKAAGTFDS,nd nd nd nd nd nd,nd,0 of 18
HFSLNSYGIS,VIYSDGRRTFYHDSVK,GEAAGTFDS,nd nd nd nd nd nd,nd,0 of 18
GFTLNSYGIS,VIYSDGRRTFYADSVK,GKEAGTFDR,-0.45 -0.07 0.02 0.11 -0.04 -0.35,-0.13,0 of 18
GFQLNSYGIS,VIYSDGRRTFYGDSVK,GWTAGTFDT,1.27 1.74 0.76 1.18 0.60 1.16,1.12,0 of 18
GFELNEYGIS,VIYSDGRRTFYVDSVK,GRQAGTFDS,0.18 0.24 0.58 -0.05 0.28 0.59,0.30,0 of 18
GFNLNSYGIS,VIYSDGRRTFYGDMVK,GRNAGTFDS,nd nd nd nd 2.52 -0.14,1.19,0 of 18
WFNLNSYGIS,VIYSDGRRTFYADSVK,GNEAGTFDS,nd 0.56 1.29 1.15 1.11 2.14,1.25,0 of 18
GFSLNSYGIS,VIYSDGRRTFYGDSVK,GQEAGTFDD,-0.33 0.65 -0.01 0.78 0.61 1.02,0.45,0 of 18
YFTLNSYGIS,VIYSDGRRTFYGDSVK,GQTAGTFDL,nd nd nd nd nd nd,nd,0 of 18
GFTLNSYGIS,VIYSDGQRTFYGDDVK,GKTAGTFDK,1.99 0.66 1.50 0.88 0.56 1.13,1.12,0 of 18
GFDLNSYGIS,VIYSDGRRTFYADRVK,GRTAGTFDT,0.86 -0.29 -0.50 -0.52 -0.49 0.37,-0.10,0 of 18
GFSLNDYGIS,VIYSDGKRTFYGDSVK,GRQAGTFDS,-0.17 -0.41 -0.77 0.33 -0.18 -0.27,-0.25,0 of 18
GFDLNSYGIS,VIYSDGMRTFYGDKVK,GRTAGTFDS,0.21 0.91 0.56 0.02 0.29 0.23,0.37,0 of 18
GFSLNNYGIS,VIYSDGRRTFYGDHVK,GQAAGTFDS,2.41 2.65 2.28 2.49 1.90 2.63,2.39,1 of 18 (2.03)

Picked from the list: the 7 lowest averages where every replicate gave a value.

CDR-H1	CDR-H2	CDR-H3	replicates, log10 nM	log10 Kd (nM), mean	signal with controls
GFSLNEYGIS	VIYSDGRRTFYSDSVK	GRTAGTFDK	-0.29 -0.28 -0.50 -0.51 -0.36 -0.34	-0.38	0 of 18
GFTLNSYGIS	VIYSDGKRTFYADDVK	GREAGTFDT	-0.19 -0.24 -0.12 -0.30 -0.26 -0.44	-0.26	0 of 18
GFSLNDYGIS	VIYSDGKRTFYGDSVK	GRQAGTFDS	-0.17 -0.41 -0.77 0.33 -0.18 -0.27	-0.25	0 of 18
GFSLNSYGIS	VIYSDGRRTFYADNVK	GMTAGTFDS	0.48 -0.22 -0.32 -0.59 -0.58 -0.06	-0.22	0 of 18
GFSLNEYGIS	VIYSDGRRTFYGDSVK	GKEAGTFDT	-0.06 0.31 -0.19 -0.57 -0.33 0.00	-0.14	0 of 18
GFTLNSYGIS	VIYSDGRRTFYADSVK	GKEAGTFDR	-0.45 -0.07 0.02 0.11 -0.04 -0.35	-0.13	0 of 18
GFDLNSYGIS	VIYSDGRRTFYADRVK	GRTAGTFDT	0.86 -0.29 -0.50 -0.52 -0.49 0.37	-0.10	0 of 18

Of ten entries with the parent sequence, four were seen in most replicates (averages 0.34 to 2.37), three in one and three in none, so single entries are noisy.
Values of this round are not directly comparable with the first-round values of the same sequences.
Background: pairings of all heavy chain designs with three empty control strains gave a value in 1% of cases (median 2.08, 5th percentile 0.84). Values in that range, when seen in few replicates, are hard to tell from nonspecific mating. The control count says in how many pairings with the empty strains this scFv gave a signal, with their mean in brackets.